# Measurements taken from PubChem BioAssay AID492972 (The Scripps Research Institute Molecular Screening Center, 2010).
# Sequences of proteins named here, by UniProt entry; tags and fusion partners are left off.
# UniProt Q15102, whole entry: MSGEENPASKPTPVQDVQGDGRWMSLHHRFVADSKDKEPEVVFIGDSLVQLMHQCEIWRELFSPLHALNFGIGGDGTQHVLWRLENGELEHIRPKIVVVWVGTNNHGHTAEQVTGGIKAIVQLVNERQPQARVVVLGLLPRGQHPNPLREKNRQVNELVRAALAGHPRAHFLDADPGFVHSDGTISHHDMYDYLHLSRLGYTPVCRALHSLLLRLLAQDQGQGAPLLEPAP
# The entries are a selection whose mix differs from that of the whole data set. Some salts or complexes appear as unconnected parts, following the source record. Activity calls are given as the source filed them.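 How the source made its calls: active means inhibition above the screen-wide average of all tested compounds plus 3 SD (cut at about 25% in these data); inactive means the rest.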
# Target: Platelet-activating factor acetylhydrolase IB subunit alpha1 (Homo sapiens) (UniProt Q15102)
# Assay: PAFAH1B3 enzyme inhibitors, primary screen, biochemical, fluorescence polarization, human (AID 492972);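 further: 0% = enzyme with DMSO only and 100% = wells lacking PAFAH1B3 protein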
# Details: recombinant PAFAH1B3, FP-rhodamine probe, at 3.39 µM, active compounds read high
row,SMILES,inhibition
1,O=C(O)c1cccc(Nc2c([N+](=O)[O-])cc([N+](=O)[O-])cc2[N+](=O)[O-])c1,inactive: 10.2%
2,COc1ccccc1OP(C)(=O)Nc1c(C)cccc1C (stereo unspecified),inactive: 6.98%
3,CN1CCCCC1COC(=O)C1(O)c2ccccc2CCc2ccccc21 (stereo unspecified),inactive: -3.33%
4,CCCOc1ccc(NP(C)(=O)Oc2ccc(Cl)cc2)cc1 (stereo unspecified),inactive: 7.62%
5,CP(=O)(Nc1ccc(SC(F)(F)F)cc1)Oc1ccccc1 (stereo unspecified),inactive: -3.15%
6,CC1=C2N=C(C=C3N=C(C(C)=C4[N-][C@@](C)([C@@H]5N=C1[C@](C)(CCC(=O)NC[C@@H](C)OP(=O)([O-])O[C@H]1[C@@H](O)[C@@H](n6cnc7cc(C)c(C)cc76)O[C@@H]1CO)[C@H]5CC(N)=O)[C@@](C)(CC(N)=O)[C@@H]4CCC(N)=O)[C@@](C)(CC(N)=O)[C@@H]3CCC(N)=O)C(C)(C)[C@@H]2CCC(N)=O.[C-]#N.[Co+3],active: 35.1%
7,O=[N+]([O-])c1cc([N+](=O)[O-])c(Nc2nnnn2CCO)c([N+](=O)[O-])c1,inactive: 6.6%
8,CCOC(=O)C(CC)C1=NC(C)(C)Cc2ccccc21.O=[N+]([O-])c1cc([N+](=O)[O-])c(O)c([N+](=O)[O-])c1 (stereo unspecified),inactive: 7.99%
9,O=[N+]([O-])c1cc([N+](=O)[O-])c(-c2cnn(-c3ccccc3)c2)c([N+](=O)[O-])c1,inactive: 6.82%
10,Cc1nc2ccc3ccccc3c2s1.O=[N+]([O-])c1cc([N+](=O)[O-])c(O)c([N+](=O)[O-])c1,inactive: 12.6%
11,O=[N+]([O-])c1cc([N+](=O)[O-])c(-n2nnc3ccccc32)c([N+](=O)[O-])c1,inactive: 13%
12,CP(=O)(Nc1ccc2c(c1)OCCO2)Oc1ccccc1 (stereo unspecified),inactive: 6.58%
13,Cc1ccccc1NP(C)(=O)Nc1ccccc1C,inactive: 5.76%
14,CP(=O)(Nc1ccc(SC(F)(F)F)cc1)Oc1ccc(F)cc1 (stereo unspecified),inactive: 5.75%
15,CCOP(C)(=S)SCC(=O)NC(C)(CC)C(=O)O (stereo unspecified),inactive: -2.43%
16,O=[N+]([O-])c1ccc(OP2(=O)COCCO2)cc1 (stereo unspecified),inactive: 3.94%
17,Cc1cc(-c2cccc3ccccc23)c(C)cn1.O=[N+]([O-])c1cc([N+](=O)[O-])c(O)c([N+](=O)[O-])c1,inactive: -0.9%
18,O=[N+]([O-])c1cc([N+](=O)[O-])c(NCC2CCS(=O)(=O)C2)c([N+](=O)[O-])c1 (stereo unspecified),inactive: 0.12%
19,Cc1c(C(c2ccc3c(c2)OCO3)c2c(C)n(C)n(-c3ccccc3)c2=O)c(=O)n(-c2ccccc2)n1C.O=[N+]([O-])c1cc([N+](=O)[O-])c(O)c([N+](=O)[O-])c1,inactive: -2.42%
20,COc1ccc(OP(C)(=O)Nc2cccc(Br)c2)cc1 (stereo unspecified),inactive: -0.14%
21,CN(C)CCOC(=O)C(O)(c1ccccc1)C1CCCCC1 (stereo unspecified),inactive: 4.81%

row,SMILES,inhibition
1,COc1ccc(NP(C)(=O)Oc2ccccc2OC)cc1 (stereo unspecified),inactive: 5.69%
2,Cc1c([N+](=O)[O-])cc([N+](=O)[O-])c(Br)c1[N+](=O)[O-],inactive: -2.48%
3,CCN(CC)CCCOC(=O)C(O)(c1ccccc1)C1CCCCC1 (stereo unspecified),inactive: -8.45%
4,CP(=O)(Nc1ccccc1)Oc1ccc(F)cc1 (stereo unspecified),inactive: 5.67%
5,O=[N+]([O-])c1cc([N+](=O)[O-])c(OC2CCCCC2O)c([N+](=O)[O-])c1 (stereo unspecified),inactive: 3.84%
6,CCCCCOc1ccc(NP(C)(=O)Oc2ccc(Cl)cc2Cl)cc1 (stereo unspecified),inactive: -0.75%
7,CCOC(=O)c1ccc(NP(C)(=O)Oc2ccc(F)cc2)cc1 (stereo unspecified),inactive: 2.98%
8,COc1ccc(OP(C)(=O)Nc2ccc(SC(F)(F)F)cc2)cc1 (stereo unspecified),inactive: 6.52%
9,O=C(OC1CN2CCC1CC2)c1ccc([N+](=O)[O-])cc1 (stereo unspecified),inactive: 3.42%
10,O=C(OCCN1CCN(CCOCc2ccccc2)CC1)C(O)(c1ccccc1)c1ccccc1,inactive: 6.29%
11,COc1ccc2c(c1O)-c1c(O)c(OC)cc3c1[C@H](C2)[N+](C)(C)CC3.O=[N+]([O-])c1cc([N+](=O)[O-])c([O-])c([N+](=O)[O-])c1[O-],inactive: 11.5%
12,CP(=O)(Nc1ccccc1F)Oc1ccccc1 (stereo unspecified),inactive: -1.78%
13,CC(C)c1ccc(OP(C)(=O)Nc2ccc(SC(F)(F)F)cc2)cc1 (stereo unspecified),inactive: -0.6%
14,Cc1c(NP(C)(=O)Oc2ccc(C(C)C)cc2)c(=O)n(-c2ccccc2)n1C (stereo unspecified),inactive: 11.1%
15,O=[N+]([O-])c1cc([N+](=O)[O-])c(Nc2ccccn2)c([N+](=O)[O-])c1,inactive: 15.2%
16,CP(=O)(Nc1ccccn1)Oc1ccccc1 (stereo unspecified),inactive: -1.38%
17,COc1ccccc1OP(C)(=O)Nc1ccc(C)cc1C (stereo unspecified),inactive: 7.33%
18,CCc1ccc(OP(C)(=O)O)cc1,inactive: 7.36%
19,COc1ccccc1OP(C)(=O)Nc1ccc(Br)cc1 (stereo unspecified),inactive: -1.78%
20,COc1ccc(OP(C)(=O)Nc2ccccn2)cc1 (stereo unspecified),inactive: 4.66%
21,CN(C)CCOC(=O)C(O)(c1ccccc1)C1CCCC1 (stereo unspecified),inactive: 9.74%

row,SMILES,inhibition
1,CP(=O)(Nc1ccc(Cl)cc1Cl)Oc1ccccc1 (stereo unspecified),inactive: 7.15%
2,CCCCCCCCCCCCCCCC1C[N+](C)(C)CCOP(C)(=O)O1 (stereo unspecified),inactive: -2.03%
3,CP(=O)(OCCOc1ccccc1)OCCOc1ccccc1,inactive: -2.73%
4,O=C1C(O)=C([N+](=O)[O-])C(=O)C(O)=C1[N+](=O)[O-],inactive: 8.77%
5,Cc1cc(C)cc(OP(C)(=O)Nc2cccc(C(F)(F)F)c2)c1 (stereo unspecified),inactive: 2.24%
6,COc1ccccc1OP(C)(=O)Nc1ccc(C)c(C)c1 (stereo unspecified),inactive: 6.31%
7,COc1ccc(OP(C)(=O)Nc2ccccc2Br)cc1 (stereo unspecified),inactive: 6.59%
8,CCOC(=O)c1ccc(NP(C)(=O)Oc2ccc(Cl)cc2)cc1 (stereo unspecified),inactive: 4.97%
9,CP(=O)(OC12CC3CC(CC(C3)C1)C2)OC12CC3CC(CC(C3)C1)C2,inactive: 3.47%
10,COc1ccccc1OP(C)(=O)Nc1ccccc1Br (stereo unspecified),inactive: 4.69%
11,CC(C)(C)c1ccc(OP(C)(=O)O)cc1,inactive: -0.12%
12,CP(=O)(Nc1ccc(Cl)cc1)Oc1ccc(F)cc1 (stereo unspecified),inactive: 8.36%
13,CN(C)C(=O)c1c([N+](=O)[O-])cc([N+](=O)[O-])cc1[N+](=O)[O-],inactive: 17.7%
14,CCN(CC)CC(O)COC(=O)C(O)(c1ccccc1)C1CCCCC1 (stereo unspecified),inactive: 0.5%
15,COc1ccc(OP(C)(=O)Nc2ccc(Br)cc2)cc1 (stereo unspecified),inactive: 3.54%
16,COc1ccccc1OP(C)(=O)Nc1c(C)n(C)n(-c2ccccc2)c1=O (stereo unspecified),inactive: 1.2%
17,O=C(OCCCN1CCCC1)C(O)(c1ccccc1)C1CCCCC1 (stereo unspecified),inactive: 6.36%
18,CP(=O)(Oc1ccccc1)N1CCOC1=O (stereo unspecified),inactive: -1.92%
19,CCc1ccc(OP(C)(=O)Nc2cccnc2)cc1 (stereo unspecified),inactive: 3.52%
